Where a name gives a salt, the structure may show the parent alone. Read-outs that look alike come from different tables or passages of the source.
Assays:
S. aureus DNA gyrase = S. aureus DNA gyrase (Staphylococcus aureus, UniProt P0A0K8+P20831); experiment: S. aureus DNA gyrase supercoiling assay (TopoGEN); conditions: 37° C. 30 min
E. coli = experiment: AK assay 384-well format, Prestwick library screening; conditions: for fold induction at 50 µM: Escherichia coli, 3 h
E. cloacae = experiment: as above; conditions: for fold induction at 50 µM: Enterobacter cloacae, 3 h, read-out: AK-based Prestwick Library Screening Results, E. cloacae (fold increase in extracellular AK activity)
[1] = tested on: S. aureus strain USA300-0114; experiment: as above; conditions: for fold induction at 50 µM: Staphylococcus aureus, USA300, 3 h, read-out: AK-based Prestwick Library Screening Results, S. aureus (fold increase in extracellular AK activity)
E. faecium = experiment: as above; conditions: for fold induction at 50 µM: Enterococcus faecium, 3 h, read-out: AK-based Prestwick Library Screening Results, E. faecium (fold increase in extracellular AK activity)
P. aeruginosa = experiment: as above; conditions: for fold induction at 50 µM: Pseudomonas aeruginosa, 3 h, read-out: AK-based Prestwick Library Screening Results, P. aeruginosa (fold increase in extracellular AK activity)
[2] = tested on: A. baumannii strain 98-37-09; experiment: as above; conditions: for fold induction at 50 µM: Acinetobacter baumannii, 983709, 3 h, read-out: AK-based Prestwick Library Screening Results, A. baumannii (fold increase in extracellular AK activity)
K. pneumoniae = experiment: as above; conditions: for fold induction at 50 µM: Klebsiella pneumoniae, 3 h, read-out: AK-based Prestwick Library Screening Results, K. pneumoniae (fold increase in extracellular AK activity)
[3] = read-out: AK-based Prestwick Library Screening Results, E. coli (fold increase in extracellular AK activity)

Sequences of proteins named here, by UniProt entry; tags and fusion partners are left off. A change or cut given only in a name is not applied to a line headed by its entry.
UniProt P0A0K8: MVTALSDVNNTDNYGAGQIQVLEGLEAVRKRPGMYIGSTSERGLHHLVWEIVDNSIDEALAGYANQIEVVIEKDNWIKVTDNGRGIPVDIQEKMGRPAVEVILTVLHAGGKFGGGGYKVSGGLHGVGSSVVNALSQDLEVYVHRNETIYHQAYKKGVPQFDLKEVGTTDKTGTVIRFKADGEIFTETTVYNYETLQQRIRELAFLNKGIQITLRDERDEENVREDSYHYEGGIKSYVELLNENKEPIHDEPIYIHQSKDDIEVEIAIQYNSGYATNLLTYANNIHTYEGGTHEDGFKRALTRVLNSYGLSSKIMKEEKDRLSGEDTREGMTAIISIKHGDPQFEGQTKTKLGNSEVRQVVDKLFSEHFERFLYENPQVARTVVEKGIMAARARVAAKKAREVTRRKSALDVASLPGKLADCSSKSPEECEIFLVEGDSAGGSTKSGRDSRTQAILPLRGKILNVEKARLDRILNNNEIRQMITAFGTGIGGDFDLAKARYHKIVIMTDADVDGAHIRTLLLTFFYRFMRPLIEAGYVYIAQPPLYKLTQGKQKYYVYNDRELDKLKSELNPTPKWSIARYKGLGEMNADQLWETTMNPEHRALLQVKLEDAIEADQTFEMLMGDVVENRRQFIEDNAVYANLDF
UniProt P20831: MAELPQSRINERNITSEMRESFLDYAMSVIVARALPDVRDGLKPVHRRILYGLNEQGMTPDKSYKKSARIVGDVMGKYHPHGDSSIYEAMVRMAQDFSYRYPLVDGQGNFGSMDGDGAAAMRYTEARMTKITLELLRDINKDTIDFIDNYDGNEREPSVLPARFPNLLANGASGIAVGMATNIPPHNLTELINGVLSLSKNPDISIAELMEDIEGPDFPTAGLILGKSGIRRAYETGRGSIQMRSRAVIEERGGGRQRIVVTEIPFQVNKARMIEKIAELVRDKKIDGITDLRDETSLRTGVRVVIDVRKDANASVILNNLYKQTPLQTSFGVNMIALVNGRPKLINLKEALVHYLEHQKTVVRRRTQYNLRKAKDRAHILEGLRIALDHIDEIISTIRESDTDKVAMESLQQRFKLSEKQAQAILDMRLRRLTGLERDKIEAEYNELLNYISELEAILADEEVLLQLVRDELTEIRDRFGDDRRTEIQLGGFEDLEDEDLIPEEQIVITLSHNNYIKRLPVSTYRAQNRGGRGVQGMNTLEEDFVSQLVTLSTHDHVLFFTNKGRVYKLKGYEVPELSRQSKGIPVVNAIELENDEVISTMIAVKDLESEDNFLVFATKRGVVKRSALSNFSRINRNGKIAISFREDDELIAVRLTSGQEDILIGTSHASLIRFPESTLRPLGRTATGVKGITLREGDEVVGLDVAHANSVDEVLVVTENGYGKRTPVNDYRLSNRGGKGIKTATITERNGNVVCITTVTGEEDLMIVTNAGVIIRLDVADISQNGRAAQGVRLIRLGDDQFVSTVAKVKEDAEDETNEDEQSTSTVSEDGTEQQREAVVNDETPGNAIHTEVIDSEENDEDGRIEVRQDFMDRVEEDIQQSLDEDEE

Compound | IC50 (S. aureus DNA gyrase) | fold induction at 50 µM (E. cloacae) | fold induction at 50 µM [1] | fold induction at 50 µM (E. faecium) | fold induction at 50 µM (P. aeruginosa) | fold induction at 50 µM [2] | fold induction at 50 µM (E. coli; [3]) | fold induction at 50 µM (K. pneumoniae) | also measured
CC(C)(C)c1ccc(C(=O)CN2CCC(C(O)(c3ccccc3)c3ccccc3)CC2)cc1 [Compound 20, 1-(4-(tert-butyl)phenyl)-2-(4-(hydroxydiphenylmethyl)piperidin-1-yl)ethanone] | 166 µM | – | – | – | – | – | – | – | –
O=C(O)CCCC[C@@H]1SC[C@@H]2NC(=O)N[C@@H]21 [Biotin] | – | – | – | – | – | – | – | – | fold induction at 50 µM (E. coli; read-out: AK-based Prestwick Library Screening Results, E. coli (increase in extracellular AK activity)): 0.6
O=C(O)C1CCCNC1 (racemic) [(±)-Nipecotic acid] | – | 1.3 | 1.3 | 1 | 1 | 1.3 | 1.4 | 1.2 | –
CC(C)(C)c1ccc(C(N)CCCN2CCC(C(O)(c3ccccc3)c3ccccc3)CC2)cc1 (stereo not shown) [Compound 24, (1-(4-amino-4-(4-(tert-butyl)phenyl)butyl)piperidin-4-yl)diphenylmethanol] | > 1060 µM | – | – | – | – | – | – | – | –
COc1cc(NC(C)CCCN)c2ncccc2c1 (stereo not shown) [Primaquine diphosphate] | – | – | – | – | – | – | 1.2 | – | –
CNCCC(Oc1ccccc1OC)c1ccccc1 (stereo not shown) [Nisoxetine hydrochloride] | – | 0.9 | 0.7 | 1 | 0.9 | 0.8 | 0.9 | 0.7 | –
CC(C)(C)c1ccc(C(=O)CCCN2CCC(C(O)(c3ccccc3)c3ccccc3)CC2)cc1 [Compound 11, 1-(4-(tert-butyl)phenyl)-4-(4-(hydroxydiphenylmethyl)piperidin-1-yl)butan-1-one] | 199 µM | – | – | – | – | – | – | – | –
(−)-Quinpirole hydrochloride | – | – | – | – | – | – | – | – | AK-based Prestwick library screening result, E. cloacae (fold increase in extracellular AK activity) (E. cloacae): 1.7; AK-based Prestwick library screening result, S. aureus (fold increase in extracellular AK activity) [1]: 1.2; AK-based Prestwick library screening result, E. faecium (fold increase in extracellular AK activity) (E. faecium): 1.0; AK-based Prestwick library screening result, P. aeruginosa (fold increase in extracellular AK activity) (P. aeruginosa): 0.9; AK-based Prestwick library screening result, A. baumannii (fold increase in extracellular AK activity) [2]: 1.0; AK-based Prestwick library screening result, E. coli (fold increase in extracellular AK activity) (E. coli): 1.1; AK-based Prestwick library screening result, K. pneumoniae (fold increase in extracellular AK activity) (K. pneumoniae): 1.0
O=C(NCCNCC(O)COc1ccc(O)cc1)N1CCOCC1 (stereo not shown) [Xamoterol hemifumarate] | – | – | – | – | – | – | 1.3 | – | –
C[C@@H]1C[C@H]2[C@@H]3C[C@H](F)C4=CC(=O)C=C[C@]4(C)[C@@]3(F)[C@@H](O)C[C@]2(C)[C@@]1(O)C(=O)CO [Flumethasone] | – | 0.8 | 0.6 | 0.9 | 0.7 | 0.7 | 0.6 | 0.6 | –

From patent US10004701B2, “Methods and compositions for treating infection” (UNIVERSITY OF ROCHESTER, priority 2012, dated 2018)
